# In PubChem BioAssay (NCATS):
# “And” between values parts separate entries of the source, which are not always exact repeats. Equal entries are not always repeated. The entries are a selection whose mix differs from that of the whole data set. The source made the active and inactive calls. The rule behind the calls is not given here.
# Assay: qHTS assay for small molecule activators of the human pregnane X receptor (PXR) signaling pathway (AID 720659); note: 0% is about no effect
# Conditions: DPX-2 HepG2 CYP3A4-luciferase, 24 h; at 92.3 µM (top of the series)
row,SMILES,activation
1,O=[N+]([O-])c1cccc([N+](=O)[O-])c1,inactive: -0.464% and inactive: -2.97%
2,Cc1ccc([N+](=O)[O-])c([N+](=O)[O-])c1,inactive: -8.11% and inactive: 0.762%
3,[NH4+].[O-][Cl+3]([O-])([O-])[O-],inactive: -7.5%
4,Cc1ccc([N+](=O)[O-])cc1[N+](=O)[O-],inactive: -9.42% and inactive: 0.498%
5,O=[N+]([O-])[O-].[NH4+],inactive: -5.9%
6,CCOP(=O)(CC)OCC,inactive: -6.63%
7,Cc1cccc([N+](=O)[O-])c1[N+](=O)[O-],inactive: -3.38%
8,CCC(C)(OO)OOC(C)(CC)OO (centres undefined),inactive: -10.2% and inactive: 14.4%
9,Cc1c([N+](=O)[O-])cccc1[N+](=O)[O-],inactive: -12.1% and inactive: 28.4%
